Reference: patent publication US20120045393A1 (priority 2009, published 2012)

Test system: LHRH binding sites on human ovarian cancer cells (EFO-27)
Conditions: not given
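Note: Cell-associated radioactivity on confluent EFO-27 monolayers in 96-well plates, measured by microplate scintillation counting.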

EC50	Compound
0.43 µM	N=C(N)NCCC[C@H](NC(=O)[C@@H](Cc1ccc2ccccc2c1)NC(=O)CN1CCN(CC(=O)O)CCN(CC(=O)O)CCN(CC(=O)O)CC1)C(=O)N[C@@H](Cc1ccccc1)C(=O)N[C@@H](CO)C(=O)N[C@@H](Cc1c[nH]cn1)C(=O)N[C@H](CCCNC(=N)N)C(=O)N[C@@H](Cc1c[nH]c2ccccc12)C(=O)N[C@@H](Cc1ccc(C(=O)c2ccccc2)cc1)C(=O)N1CCC[C@H]1C(=O)NNC(N)=O [compound 3106]
0.38 µM	N=C(N)NCCC[C@H](NC(=O)[C@@H](Cc1ccc2ccccc2c1)NC(=O)CN1CCN(CC(=O)O)CCN(CC(=O)O)CCN(CC(=O)O)CC1)C(=O)N[C@@H](Cc1ccc(CN)cc1)C(=O)N[C@@H](CO)C(=O)N[C@@H](Cc1c[nH]cn1)C(=O)N[C@H](CCCNC(=N)N)C(=O)N[C@@H](Cc1c[nH]c2ccccc12)C(=O)N[C@@H](Cc1ccc(C(=O)c2ccccc2)cc1)C(=O)N1CCC[C@H]1C(=O)NNC(N)=O [compound 3107]
0.41 µM	N=C(N)NCCC[C@H](NC(=O)[C@@H](Cc1ccc2ccccc2c1)NC(=O)CN1CCN(CC(=O)O)CCN(CC(=O)O)CCN(CC(=O)O)CC1)C(=O)N[C@@H](Cc1c[nH]c2ccccc12)C(=O)N[C@@H](CN)C(=O)N[C@@H](Cc1c[nH]cn1)C(=O)N[C@H](CCCNC(=N)N)C(=O)N[C@@H](Cc1c[nH]c2ccccc12)C(=O)N[C@@H](Cc1ccc(C(=O)c2ccccc2)cc1)C(=O)N1CCC[C@H]1C(=O)NNC(N)=O [compound 2955]
0.38 µM	N=C(N)NCCC[C@H](NC(=O)[C@H](Cc1cnc2ccccc2c1)NC(=O)CN1CCN(CC(=O)O)CCN(CC(=O)O)CCN(CC(=O)O)CC1)C(=O)N[C@@H](Cc1c[nH]c2ccccc12)C(=O)N[C@@H](CO)C(=O)N[C@@H](Cc1c[nH]cn1)C(=O)N[C@H](CCCNC(=N)N)C(=O)N[C@@H](Cc1c[nH]c2ccccc12)C(=O)N[C@@H](Cc1ccc(C(=O)c2ccccc2)cc1)C(=O)N1CCC[C@H]1C(=O)NNC(N)=O [BRU-3057]
0.35 µM	N=C(N)NCCC[C@H](NC(=O)[C@H](CCC1CCN(C(=N)N)CC1)NC(=O)CN1CCN(CC(=O)O)CCN(CC(=O)O)CCN(CC(=O)O)CC1)C(=O)N[C@@H](Cc1c[nH]c2ccccc12)C(=O)N[C@@H](CO)C(=O)N[C@@H](Cc1c[nH]cn1)C(=O)N[C@H](CCCNC(=N)N)C(=O)N[C@@H](Cc1c[nH]c2ccccc12)C(=O)N[C@@H](Cc1ccc(C(=O)c2ccccc2)cc1)C(=O)N1CCC[C@H]1C(=O)NNC(N)=O [BRU-3094]
0.26 µM	CC(=O)N[C@H](Cc1ccc2ccccc2c1)C(=O)N[C@@H](Cc1c[nH]cn1)C(=O)N[C@@H](Cc1c[nH]c2ccccc12)C(=O)N[C@@H](CO)C(=O)N[C@@H](Cc1c[nH]cn1)C(=O)N[C@H](CCCNC(=N)N)C(=O)N[C@@H](Cc1c[nH]c2ccccc12)C(=O)N[C@@H](Cc1ccc(C(=O)c2ccccc2)cc1)C(=O)N1CCC[C@H]1C(=O)NNC(N)=O [BRU-2803]
0.36 µM	N=C(N)NCCC[C@@H](NC(=O)[C@H](Cc1c[nH]cn1)NC(=O)[C@H](CO)NC(=O)[C@H](Cc1c[nH]c2ccccc12)NC(=O)[C@H](Cc1c[nH]cn1)NC(=O)CN1CCN(CC(=O)O)CCN(CC(=O)O)CCN(CC(=O)O)CC1)C(=O)N[C@@H](Cc1c[nH]c2ccccc12)C(=O)N[C@@H](Cc1ccc(C(=O)c2ccccc2)cc1)C(=O)N1CCC[C@H]1C(=O)NNC(N)=O [BRU-2811]
0.33 µM	N=C(N)NCCC[C@H](NC(=O)[C@@H](Cc1ccc(CN)cc1)NC(=O)CN1CCN(CC(=O)O)CCN(CC(=O)O)CCN(CC(=O)O)CC1)C(=O)N[C@@H](Cc1c[nH]c2ccccc12)C(=O)N[C@@H](CO)C(=O)N[C@@H](Cc1c[nH]cn1)C(=O)N[C@H](CCCNC(=N)N)C(=O)N[C@@H](Cc1c[nH]c2ccccc12)C(=O)N[C@@H](Cc1ccc(C(=O)c2ccccc2)cc1)C(=O)N1CCC[C@H]1C(=O)NNC(N)=O [BRU-2997]
0.37 µM	N=C(N)NCCC[C@H](NC(=O)[C@@H](Cc1ccc2ccccc2c1)NC(=O)CN1CCN(CC(=O)O)CCN(CC(=O)O)CCN(CC(=O)O)CC1)C(=O)N[C@@H](Cc1c[nH]c2ccccc12)C(=O)N[C@@H](CO)C(=O)N[C@@H](Cc1c[nH]cn1)C(=O)N[C@H](CCCNC(=N)N)C(=O)N[C@@H](Cc1c[nH]c2ccccc12)C(=O)N[C@@H](Cc1ccc2ccccc2c1)C(=O)N1CCC[C@H]1C(=O)NNC(N)=O [BRU-3027]
0.27 µM	N=C(N)NCCC[C@H](NC(=O)[C@@H](Cc1ccc2ccccc2c1)NC(=O)CN1CCN(CC(=O)O)CCN(CC(=O)O)CCN(CC(=O)O)CC1)C(=O)N[C@@H](Cc1c[nH]c2ccccc12)C(=O)N[C@@H](CC(N)=O)C(=O)N[C@@H](Cc1c[nH]cn1)C(=O)N[C@H](CCCNC(=N)N)C(=O)N[C@@H](Cc1c[nH]c2ccccc12)C(=O)N[C@@H](Cc1ccc(C(=O)c2ccccc2)cc1)C(=O)N1CCC[C@H]1C(=O)NNC(N)=O [BRU-2956]
0.4 µM	CNCC(=O)N[C@@H](Cc1c[nH]cn1)C(=O)N[C@@H](Cc1c[nH]c2ccccc12)C(=O)N[C@@H](CO)C(=O)N[C@@H](Cc1c[nH]cn1)C(=O)N[C@H](CCCNC(=N)N)C(=O)N[C@@H](Cc1c[nH]c2ccccc12)C(=O)N[C@@H](Cc1ccc(C(=O)c2ccccc2)cc1)C(=O)N1CCC[C@H]1C(=O)NNC(N)=O [BRU-2821]
0.36 µM	N=C(N)NCCC[C@@H](NC(=O)[C@H](Cc1c[nH]cn1)NC(=O)[C@H](CO)NC(=O)[C@H](Cc1c[nH]c2ccccc12)NC(=O)[C@H](Cc1c[nH]cn1)NC(=O)[C@@H](Cc1cccc2ccccc12)NC(=O)CN1CCN(CC(=O)O)CCN(CC(=O)O)CCN(CC(=O)O)CC1)C(=O)N[C@@H](Cc1c[nH]c2ccccc12)C(=O)N[C@@H](Cc1ccc(C(=O)c2ccccc2)cc1)C(=O)N1CCC[C@H]1C(=O)NNC(N)=O [BRU-2869]
0.34 µM	N=C(N)NCCC[C@@H](NC(=O)[C@H](Cc1c[nH]cn1)NC(=O)[C@H](CO)NC(=O)[C@H](Cc1c[nH]c2ccccc12)NC(=O)[C@@H](NC(=O)[C@@H](Cc1ccc2ccccc2c1)NC(=O)CN1CCN(CC(=O)O)CCN(CC(=O)O)CCN(CC(=O)O)CC1)C1CCN(C(=N)N)CC1)C(=O)N[C@@H](Cc1c[nH]c2ccccc12)C(=O)N[C@@H](Cc1ccc(C(=O)c2ccccc2)cc1)C(=O)N1CCC[C@H]1C(=O)NNC(N)=O [BRU-3060]
0.47 µM	CCCCCCCCCCCC[C@@H](NC(=O)CN1CCN(CC(=O)O)CCN(CC(=O)O)CCN(CC(=O)O)CC1)C(=O)N[C@@H](CCCNC(=N)N)C(=O)N[C@@H](Cc1c[nH]c2ccccc12)C(=O)N[C@@H](CO)C(=O)N[C@@H](Cc1c[nH]cn1)C(=O)N[C@H](CCCNC(=N)N)C(=O)N[C@@H](Cc1c[nH]c2ccccc12)C(=O)N[C@@H](Cc1ccc(C(=O)c2ccccc2)cc1)C(=O)N1CCC[C@H]1C(=O)NNC(N)=O [BRU-3063]
0.25 µM	CC(=O)N[C@@H](Cc1ccc(CN)cc1)C(=O)N[C@@H](Cc1c[nH]cn1)C(=O)N[C@@H](Cc1c[nH]c2ccccc12)C(=O)N[C@@H](CO)C(=O)N[C@@H](Cc1c[nH]cn1)C(=O)N[C@H](CCCNC(=N)N)C(=O)N[C@@H](Cc1c[nH]c2ccccc12)C(=O)N[C@@H](Cc1ccc(C(=O)c2ccccc2)cc1)C(=O)N1CCC[C@H]1C(=O)NNC(N)=O [BRU-2839]
0.31 µM	N=C(N)NCCC[C@H](NC(=O)[C@@H](Cc1ccc(C(=O)c2ccccc2)cc1)NC(=O)CN1CCN(CC(=O)O)CCN(CC(=O)O)CCN(CC(=O)O)CC1)C(=O)N[C@@H](Cc1c[nH]c2ccccc12)C(=O)N[C@@H](CO)C(=O)N[C@@H](Cc1c[nH]cn1)C(=O)N[C@H](CCCNC(=N)N)C(=O)N[C@@H](Cc1c[nH]c2ccccc12)C(=O)N[C@@H](Cc1ccc(C(=O)c2ccccc2)cc1)C(=O)N1CCC[C@H]1C(=O)NNC(N)=O [BRU-3071]
0.39 µM	CCCCCCCCCCCC[C@H](NC(=O)CN1CCN(CC(=O)O)CCN(CC(=O)O)CCN(CC(=O)O)CC1)C(=O)N[C@@H](CCCNC(=N)N)C(=O)N[C@@H](Cc1c[nH]c2ccccc12)C(=O)N[C@@H](CO)C(=O)N[C@@H](Cc1c[nH]cn1)C(=O)N[C@H](CCCNC(=N)N)C(=O)N[C@@H](Cc1c[nH]c2ccccc12)C(=O)N[C@@H](Cc1ccc(C(=O)c2ccccc2)cc1)C(=O)N1CCC[C@H]1C(=O)NNC(N)=O [BRU-3055]

Same assay, conditions: Table 5: modifications of amino acids at positions 1 and 2; in vitro binding on EFO-27 cells

Compound	EC50
N=C(N)NCCC[C@H](NC(=O)[C@H](Cc1ccc(Oc2ccc(O)cc2)cc1)NC(=O)CN1CCN(CC(=O)O)CCN(CC(=O)O)CCN(CC(=O)O)CC1)C(=O)N[C@@H](Cc1c[nH]c2ccccc12)C(=O)N[C@@H](CO)C(=O)N[C@@H](Cc1c[nH]cn1)C(=O)N[C@H](CCCNC(=N)N)C(=O)N[C@@H](Cc1c[nH]c2ccccc12)C(=O)N[C@@H](Cc1ccc(C(=O)c2ccccc2)cc1)C(=O)N1CCC[C@H]1C(=O)NNC(N)=O [BRU-3069]	0.38 µM

Same assay, conditions: Table 8: N-substituted amino acid at position 1 and Gly as linker; in vitro binding on EFO-27 cells

Compound	EC50
N=C(N)NCCC[C@@H](NC(=O)[C@H](Cc1c[nH]cn1)NC(=O)[C@H](CO)NC(=O)[C@H](Cc1c[nH]c2ccccc12)NC(=O)[C@H](Cc1c[nH]cn1)NC(=O)CN(CCCCCCN)C(=O)CNC(=O)CN1CCN(CC(=O)O)CCN(CC(=O)O)CCN(CC(=O)O)CC1)C(=O)N[C@@H](Cc1c[nH]c2ccccc12)C(=O)N[C@@H](Cc1ccc(C(=O)c2ccccc2)cc1)C(=O)N1CCC[C@H]1C(=O)NNC(N)=O [compound 2876]	0.5 µM

Same assay, conditions: Table 11: modification of amino acid at position 5; EFO-27 cells

Compound	EC50
N=C(N)NCCC[C@H](NC(=O)[C@@H](Cc1ccc2ccccc2c1)NC(=O)CN1CCN(CC(=O)O)CCN(CC(=O)O)CCN(CC(=O)O)CC1)C(=O)N[C@@H](Cc1c[nH]c2ccccc12)C(=O)N[C@@H](CO)C(=O)N[C@@H](Cc1ccoc1)C(=O)N[C@H](CCCNC(=N)N)C(=O)N[C@@H](Cc1c[nH]c2ccccc12)C(=O)N[C@@H](Cc1ccc(C(=O)c2ccccc2)cc1)C(=O)N1CCC[C@H]1C(=O)NNC(N)=O [compound 2960]	0.4 µM

Same assay, conditions: read-out: EC50 μM; Underivatized LHRH peptides and LHRH peptides with chelator on N-terminus; EFO-27 cells

Compound	EC50
N=C(N)NCCC[C@H](NC(=O)[C@@H](Cc1ccc2ccccc2c1)NC(=O)[C@H](CCCCN)NC(=O)CN1CCN(CC(=O)O)CCN(CC(=O)O)CCN(CC(=O)O)CC1)C(=O)N[C@@H](Cc1c[nH]c2ccccc12)C(=O)N[C@@H](CO)C(=O)N[C@@H](Cc1c[nH]cn1)C(=O)N[C@H](CCCNC(=N)N)C(=O)N[C@@H](Cc1c[nH]c2ccccc12)C(=O)N[C@@H](Cc1ccc(C(=O)c2ccccc2)cc1)C(=O)N1CCC[C@H]1C(=O)NNC(N)=O [BRU-3097]	0.45 µM
